{
  "source": "paper PMC5610936",
  "about": "(Biochemical pharmacology, 2017)",
  "format_in_all_cases": "cell-based",
  "key": {"NOX4": {"target": "T1, NOX4 (Homo sapiens, UniProt Q9NPH5)", "T1 sequence (Q9NPH5 1-578)": "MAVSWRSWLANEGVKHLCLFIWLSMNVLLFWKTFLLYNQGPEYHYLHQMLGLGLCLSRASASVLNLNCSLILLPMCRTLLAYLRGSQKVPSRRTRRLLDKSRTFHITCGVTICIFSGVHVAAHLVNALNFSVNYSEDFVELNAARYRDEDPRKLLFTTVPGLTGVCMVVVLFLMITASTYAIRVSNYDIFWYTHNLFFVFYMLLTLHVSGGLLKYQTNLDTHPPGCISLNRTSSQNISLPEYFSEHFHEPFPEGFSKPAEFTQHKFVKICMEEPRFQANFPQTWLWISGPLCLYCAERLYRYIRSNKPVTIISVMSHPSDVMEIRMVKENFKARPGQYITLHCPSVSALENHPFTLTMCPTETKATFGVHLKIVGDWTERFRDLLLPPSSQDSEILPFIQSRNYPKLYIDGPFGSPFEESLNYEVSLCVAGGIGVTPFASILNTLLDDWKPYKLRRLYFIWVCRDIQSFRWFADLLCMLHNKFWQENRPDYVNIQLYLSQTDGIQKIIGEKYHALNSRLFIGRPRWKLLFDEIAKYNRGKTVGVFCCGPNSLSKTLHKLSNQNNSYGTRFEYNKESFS", "T1 sequence (P13498 2-195 partner limits assumed)": "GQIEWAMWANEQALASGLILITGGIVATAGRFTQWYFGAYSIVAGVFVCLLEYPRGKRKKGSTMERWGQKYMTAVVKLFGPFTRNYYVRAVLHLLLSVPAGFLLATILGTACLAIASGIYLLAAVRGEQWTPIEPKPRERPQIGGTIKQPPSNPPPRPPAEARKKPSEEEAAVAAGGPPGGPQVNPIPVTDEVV", "assay": "Amplex Red extracellular H2O2 assay, HEK293 NOX4 cells"}, "NOX1": {"target": "NOX1 (Homo sapiens, UniProt Q9Y5S8)", "assay": "PMA-induced superoxide anion luminescence assay, HEK293 NOX1 cells"}, "NOX5": {"target": "T2, NOX5 (Homo sapiens, UniProt Q96PH1)", "T2 sequence (Q96PH1 1-765)": "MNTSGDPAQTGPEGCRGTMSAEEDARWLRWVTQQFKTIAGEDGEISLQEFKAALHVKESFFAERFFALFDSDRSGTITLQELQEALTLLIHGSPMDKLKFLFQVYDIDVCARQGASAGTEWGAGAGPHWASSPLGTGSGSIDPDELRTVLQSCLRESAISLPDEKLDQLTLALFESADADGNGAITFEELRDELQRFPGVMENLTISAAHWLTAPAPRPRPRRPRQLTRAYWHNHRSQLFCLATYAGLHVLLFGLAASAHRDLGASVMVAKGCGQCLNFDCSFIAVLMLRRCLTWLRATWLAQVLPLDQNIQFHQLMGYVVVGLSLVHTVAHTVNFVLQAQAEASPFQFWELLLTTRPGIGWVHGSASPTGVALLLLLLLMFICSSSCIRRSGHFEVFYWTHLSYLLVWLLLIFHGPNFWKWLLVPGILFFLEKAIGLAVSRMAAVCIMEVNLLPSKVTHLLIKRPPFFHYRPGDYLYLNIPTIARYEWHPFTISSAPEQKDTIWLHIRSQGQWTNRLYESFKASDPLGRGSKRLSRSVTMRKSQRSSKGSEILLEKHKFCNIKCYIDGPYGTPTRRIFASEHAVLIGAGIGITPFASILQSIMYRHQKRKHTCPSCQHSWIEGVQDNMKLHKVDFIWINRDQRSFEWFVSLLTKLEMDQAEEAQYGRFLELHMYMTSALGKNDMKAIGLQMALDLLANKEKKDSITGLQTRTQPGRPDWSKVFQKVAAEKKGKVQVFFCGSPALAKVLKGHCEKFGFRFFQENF", "assay": "PMA-induced superoxide anion luminescence assay, UACC-257 cells"}, "NOX2 [1]": {"target": "T3, NOX2 (Homo sapiens, UniProt P04839)", "assay": "PMA-induced superoxide anion luminescence assay, PMNs"}, "NOX2 [2]": {"target": "T3, NOX2", "assay": "PMA-induced superoxide anion luminescence assay, differentiated HL-60 cells"}},
  "data": [
    {"smiles": "O=[N+]([O-])c1ccc2c(c1)[I+]c1ccccc1-2.[Cl-]", "note": "[compound 428, Dibenz[b,d]iodolium, 3-nitro-, chloride]", "values": [
      {"measurement": "IC50", "setting": "NOX4", "value": "260 ± 254", "unit": "nM"},
      {"measurement": "IC50", "setting": "NOX1", "value": "136 ± 81", "unit": "nM"},
      {"measurement": "IC50", "setting": "NOX5", "value": "35 ± 21", "unit": "nM"},
      {"measurement": "IC50", "setting": "NOX2 [1]", "value": "324 ± 144", "unit": "nM"},
      {"measurement": "IC50", "setting": "NOX2 [2]", "value": "57 ± 35", "unit": "nM"},
      {"measurement": "fold more potent in HL-60 leukemia line compared to PMNs", "setting": "NOX2 [2]", "value": "2- to 5 fold"}
    ]}
  ]
}
